ChEMBL document CHEMBL1148829, “Cinnamoyl derivatives of 7alpha-aminomethyl-6,14-endo-ethanotetrahydrothebaine and 7alpha-aminomethyl-6,14-endo-ethanotetrahydrooripavine and related opioid ligands” (2007)

Sequences of proteins named here, by UniProt entry; tags and fusion partners are left off.
UniProt P41145, whole entry: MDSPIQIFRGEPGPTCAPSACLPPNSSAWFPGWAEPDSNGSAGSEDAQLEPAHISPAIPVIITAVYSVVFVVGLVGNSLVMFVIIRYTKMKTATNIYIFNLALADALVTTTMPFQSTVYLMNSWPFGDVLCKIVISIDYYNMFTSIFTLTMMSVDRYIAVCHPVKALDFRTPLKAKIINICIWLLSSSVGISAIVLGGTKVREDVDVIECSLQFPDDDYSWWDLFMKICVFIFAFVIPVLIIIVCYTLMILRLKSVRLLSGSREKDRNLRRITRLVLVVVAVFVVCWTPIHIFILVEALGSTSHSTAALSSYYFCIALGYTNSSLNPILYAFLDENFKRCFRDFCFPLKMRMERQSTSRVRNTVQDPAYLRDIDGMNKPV
UniProt P41143, whole entry: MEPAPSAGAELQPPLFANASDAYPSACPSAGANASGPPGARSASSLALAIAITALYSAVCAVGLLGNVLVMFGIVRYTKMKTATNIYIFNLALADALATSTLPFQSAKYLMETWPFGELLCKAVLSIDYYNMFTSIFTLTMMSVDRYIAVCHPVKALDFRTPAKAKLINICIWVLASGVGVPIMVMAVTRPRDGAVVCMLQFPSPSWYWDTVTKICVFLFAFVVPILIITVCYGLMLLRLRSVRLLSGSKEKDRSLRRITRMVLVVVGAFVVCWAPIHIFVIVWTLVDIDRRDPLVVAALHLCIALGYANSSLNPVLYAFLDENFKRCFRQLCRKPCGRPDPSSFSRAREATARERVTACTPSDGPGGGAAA

What was measured:
[1] = target: T1, Kappa-type opioid receptor (Homo sapiens, UniProt P41145); test: Displacement of [3H]U-69593 from human cloned kappa opioid receptor
[2] = target: T1, Kappa-type opioid receptor; test: Agonist activity at human kappa opioid receptor expressed in CHO cells assessed as stimulation of [35S]GTP-gamma-S binding
[3] = target: Delta-type opioid receptor (Homo sapiens, UniProt P41143); test: Displacement of [3H]DPDPE from human cloned delta opioid receptor
[4] = target: Mu-type opioid receptor (UniProt P35372+P41143); test: Agonist activity at human delta opioid receptor expressed in CHO cells assessed as stimulation of [35S]GTP-gamma-S binding

Row | Compound | Ki [1] [nM] | EC50 [2] [nM] | Ki [3] [nM] | EC50 [4] [nM]
1 | COc1ccc2c3c1O[C@H]1[C@]4(OC)CC[C@@]5(C[C@@H]4CNC(=O)/C=C/c4ccc([N+](=O)[O-])cc4)[C@@H](C2)N(C)CC[C@]315 | 58 | 133 | 133 | 
2 | CO[C@@]12CC[C@@]3(C[C@@H]1CNC/C=C/c1ccccc1)[C@H]1Cc4ccc(O)c5c4[C@@]3(CCN1C)[C@H]2O5 | 6.6 | 1.78 | 38.6 | 26.2
3 | COc1ccc2c3c1O[C@H]1[C@]4(OC)CC[C@@]5(C[C@@H]4CNC(=O)/C=C/c4ccc(C)cc4)[C@@H](C2)N(C)CC[C@]315 | 159 | 290 | 246 | 
4 | COc1ccc(/C=C/C(=O)NC[C@H]2C[C@@]34CC[C@@]2(OC)[C@@H]2Oc5c(OC)ccc6c5[C@@]23CCN(C)[C@@H]4C6)cc1 | 109 | 680 | 322 | 
5 | CO[C@@]12C=C[C@@]3([C@@H]4CN(C(=O)/C=C/c5ccccc5C)C[C@@H]41)[C@H]1Cc4ccc(O)c5c4[C@@]3(CCN1C)[C@H]2O5 | 0.52 | 3.95 | 2.36 | 1.8
6 | CO[C@@]12CC[C@@]3(C[C@@H]1CNC(=O)/C=C/c1ccc([N+](=O)[O-])cc1)[C@H]1Cc4ccc(O)c5c4[C@@]3(CCN1C)[C@H]2O5 | 1.72 | 7.49 | 5.38 | 
7 | COc1ccc2c3c1O[C@H]1[C@]4(OC)CC[C@@]5(C[C@@H]4CNC(=O)/C=C/c4ccccc4[N+](=O)[O-])[C@@H](C2)N(C)CC[C@]315 | 29.8 | 285 | 111 | 
8 | COc1ccccc1/C=C/C(=O)NC[C@H]1C[C@@]23CC[C@@]1(OC)[C@@H]1Oc4c(OC)ccc5c4[C@@]12CCN(C)[C@@H]3C5 | 44.7 | 159 | 87.9 | 
9 | COc1ccc2c3c1O[C@H]1[C@]4(OC)CC[C@@]5(C[C@@H]4CNC(=O)/C=C/c4ccccc4C)[C@@H](C2)N(C)CC[C@]315 | 21 | 74.4 | 65.7 | 
10 | CO[C@@]12CC[C@@]3(C[C@@H]1CNC(=O)/C=C/c1ccc(Cl)cc1)[C@H]1Cc4ccc(O)c5c4[C@@]3(CCN1C)[C@H]2O5 | 1.85 | 8.62 | 8 | 35.4
11 | COc1ccc2c3c1O[C@H]1[C@]4(OC)CC[C@@]5(C[C@@H]4CNC(=O)/C=C/c4ccccc4)[C@@H](C2)N(C)CC[C@]315 | 23.7 | 131 | 86.4 | 
12 | CO[C@@]12CC[C@@]3(C[C@@H]1CNC(=O)/C=C/c1ccccc1C)[C@H]1Cc4ccc(O)c5c4[C@@]3(CCN1C)[C@H]2O5 | 1.82 |  | 3.41 | 
13 | COc1ccc2c3c1O[C@H]1[C@]4(OC)CC[C@@]5(C[C@@H]4CNC/C=C/c4ccc(Cl)cc4)[C@@H](C2)N(C)CC[C@]315 | 67.9 | 233 | 742 | 
14 | COc1ccc2c3c1O[C@H]1[C@]4(OC)CC[C@@]5(C[C@@H]4CNC(=O)/C=C/c4ccc(Cl)cc4)[C@@H](C2)N(C)CC[C@]315 | 155 |  | 289 | 
15 | CO[C@@]12C=C[C@@]3([C@@H]4CN(C(=O)/C=C/c5ccc(C)cc5)C[C@@H]41)[C@H]1Cc4ccc(O)c5c4[C@@]3(CCN1C)[C@H]2O5 | 1.41 | 3.33 | 4.83 | 14.4
16 | CO[C@@]12CC[C@@]3(C[C@@H]1CNC(=O)/C=C/c1ccccc1)[C@H]1Cc4ccc(O)c5c4[C@@]3(CCN1C)[C@H]2O5 | 5.3 | 41.7 | 11.1 | 59.2
17 | COc1ccc2c3c1O[C@H]1[C@]4(OC)CC[C@@]5(C[C@@H]4CNC/C=C/c4ccccc4)[C@@H](C2)N(C)CC[C@]315 | 26.4 | 106 | 395 | 
18 | CO[C@@]12CC[C@@]3(C[C@@H]1CNC(=O)/C=C/c1ccccc1Cl)[C@H]1Cc4ccc(O)c5c4[C@@]3(CCN1C)[C@H]2O5 | 1.64 | 3.52 | 7.59 | 
19 | CO[C@@]12CC[C@@]3(C[C@@H]1CNC(=O)/C=C/c1ccc(C)cc1)[C@H]1Cc4ccc(O)c5c4[C@@]3(CCN1C)[C@H]2O5 | 3.11 | 9.88 | 6.53 | 
20 | COc1ccc2c3c1O[C@H]1[C@]4(OC)CC[C@@]5(C[C@@H]4CNC(=O)/C=C/c4ccccc4Cl)[C@@H](C2)N(C)CC[C@]315 | 22.2 | 56.7 | 94.1 | 106
